Literature values, collected in US20220280646A1, “COMPOSITIONS AND METHODS INVOLVING POLYMER, SOLVENT AND HIGH VISCOSITY LIQUID CARRIER MATERIAL” (DURECT CORPORATION, priority 2013, published 2022).

Settings: 2 mg oral; cited from earlier work

For `Cc1nc2n(c(=O)c1CCN1CCC(c3noc4cc(F)ccc34)CC1)CCCC2` [Risperdal, risperidone], the “average Cmax for risperidone” value is given as 181 ng/mL.
